Results from patent US11179474B1, “Nanoparticle-based liver-targeting therapy and imaging” (priority 2015, dated 2021).

Test: Solubility in aqueous systems
Assay type: physicochemical
Source text: For the functionalisation of the liver targeting nanoparticles two antineoplastic agents were chosen as chemotherapeutics: platinum-(IV)-succinate (Pt(IV)-suc) and doxorubicin. Both chemotherapeutics were coupled to the attachment linker via EDC*HCl/NHS promoted amide bound formation. […] Therefore, the nanoparticle solution was exchanged to DMSO either via lyophilisation or centrifuge concentration and subsequent dilution. Then, the EDC*HCl/NHS pre-activated succinate was reacted with the nanoparticles overnight. Final washings to remove remaining reagents provided an aqueous solution of liver targeting gold nanoparticles with platinum based chemotherapeutic pay-load (FIG. 3B). The Pt/Au ratio was determined by MPAES to 1/15. The covalent attachment of the drug to the nanoparticle was shown by ^1H NMR of the final construct after etching (FIG. 4B). The original signal of the amino methylene group with a chemical shift of 2.81 ppm virtually disappears, while a new multiplet of the succinic ethylene group at 2.47 ppm can observed in the spectrum. The integrals of the reporter signals were not changed indicating corona stability during on nanoparticle manipulations.

platinum-(IV)-succinate
solubility in aqueous systems: not soluble in aqueous systems
